Assay [1] deals with T1, MOR (Homo sapiens, UniProt P35372). Put plainly: cell-based. The settings on record: read-out: Emax for β-arrestin recruitment. Here is the method: The β-Arrestin recruitment assay was performed as previously described.[41] Briefly, the PathHunter β-Arrestin assay was used to monitor GPCR activation through β-arrestin recruitment. This assay also utilized EFC technology, with β-Gal as the reporter enzyme. In this system, the Enzyme Acceptor (EA) fragment was fused to β-arrestin, and the ProLink (PK) fragment was fused to the GPCR of interest. Upon GPCR activation, EA and PK complementation restored β-Gal activity, generating a chemiluminescent signal that was measured using PathHunter Detection Reagents.
A general note: Arrestin recruitment assays detect the binding of arrestin to an activated receptor.

Sequences of proteins named here, by UniProt entry; tags and fusion partners are left off.
UniProt P35372, whole entry: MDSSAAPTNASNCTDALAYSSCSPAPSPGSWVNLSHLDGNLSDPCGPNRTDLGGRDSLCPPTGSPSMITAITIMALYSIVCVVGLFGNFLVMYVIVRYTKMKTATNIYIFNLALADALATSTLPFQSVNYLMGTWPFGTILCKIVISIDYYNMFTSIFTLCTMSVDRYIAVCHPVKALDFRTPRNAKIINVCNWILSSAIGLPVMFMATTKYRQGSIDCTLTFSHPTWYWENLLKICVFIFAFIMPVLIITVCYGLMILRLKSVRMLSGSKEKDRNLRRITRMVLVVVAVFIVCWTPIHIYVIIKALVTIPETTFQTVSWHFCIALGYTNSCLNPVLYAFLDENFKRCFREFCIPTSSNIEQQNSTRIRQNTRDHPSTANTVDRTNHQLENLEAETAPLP

Assay [2] addresses T1, MOR. Put plainly: cell-based. The settings on record: read-out: Emax for G-protein activation. Here is the method: The G-protein pathway activation was performed as previously described.[40] Briefly, the G-protein pathway activation was measured using HitHunter cAMP assays, which quantify cAMP, a secondary messenger involved in G-protein-coupled receptor (GPCR) signaling. This assay employed Enzyme Fragment Complementation (EFC) technology with β-galactosidase (β-Gal) as the reporter enzyme. Upon activation, β-Gal produces a chemiluminescent signal that is detected using a microplate reader, providing a quantitative measure of G-protein pathway activity.

Experimental findings from paper PMC11915030 (ACS Pharmacology & Translational Science, 2025) are described below.

Read-outs that look alike come from different tables or passages of the source.

`CSCC[C@H](NC(=O)[C@H](Cc1ccccc1)NC(=O)CNC(=O)CNC(=O)[C@@H](N)Cc1ccc(O)cc1)C(=O)O` [[Met^5]enkephalin]: the Emax in assay [1] and in assay [2] was 100% in each case.

A word on the Emax: it is the maximal effect, on the per cent scale that the assay sets.
